Series [1] deals with Primary gingival keratinocytes.
The test system of series [2] is Primary epidermal keratinocytes (HEKa).

As for cetuximab, the CC50 in series [1] came to 12 µM. In addition, in series [2], the “CC50 Value Primary epidermal keratinocytes (HEKa)” value is “Not calculable”.

Source of the values: patent publication US20240002952A1, “METHOD FOR IN VITRO DIAGNOSIS OF MUCOSITIS IN CANCER PATIENTS UNDERGOING ANTITUMOR THERAPY” (ISTITUTI FISIOTERAPICI OSPITALIERI, priority 2020, published 2024).
